Chains of the proteins cited; added tags and fusions are not shown. Lines headed by an entry give the natural chain unless they say otherwise; changes in a name come on top.
UniProt P70645: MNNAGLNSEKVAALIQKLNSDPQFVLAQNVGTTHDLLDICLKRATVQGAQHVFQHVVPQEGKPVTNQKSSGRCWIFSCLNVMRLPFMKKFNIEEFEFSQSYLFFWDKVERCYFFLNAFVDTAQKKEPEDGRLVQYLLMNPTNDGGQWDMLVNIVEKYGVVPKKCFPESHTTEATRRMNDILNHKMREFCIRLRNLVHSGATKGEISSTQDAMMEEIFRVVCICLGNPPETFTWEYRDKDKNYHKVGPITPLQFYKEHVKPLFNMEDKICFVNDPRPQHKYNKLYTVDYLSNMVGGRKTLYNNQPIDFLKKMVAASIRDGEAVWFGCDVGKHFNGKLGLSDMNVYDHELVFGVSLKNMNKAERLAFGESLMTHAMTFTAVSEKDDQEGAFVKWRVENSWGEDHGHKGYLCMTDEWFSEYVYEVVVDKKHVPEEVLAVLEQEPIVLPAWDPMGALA

According to patent US4267102A, “Bleomycin group antibiotics” (Nippon Kayaku Kabushiki Kaisha, priority 1979, dated 1981):

Molecular target: inactivating enzyme (Rattus norvegicus, UniProt P70645)
Details: rat liver extract, 37° C., 15, 30, 60 and 120 minutes; residual activity against Mycobacterium smegmatis ATCC 607

N-methylbleomycinic acid [Compound (1)]
Resistance to inactivating enzyme (residual activity with reaction time, FIGS. 1 to 6): markedly resistant; also recorded: not inactivated

“Also recorded” adds a separate entry of the source.
